## Measured affinities in a library of Ab-14 light chain variants

Source: Engelhart et al. 2022 (doi:10.1038/s41597-022-01779-4), MIT Lincoln Laboratory and A-Alpha Bio; data file from the FLAb repository.

All variants were tested on one target, the spike HR2 peptide PDVDLGDISGINAS (SARS-CoV-2).

Parent scFv Ab-14: VH joined to VL by a (GGGGS)3 linker. Changes lie in the light chain CDRs alone.
VH: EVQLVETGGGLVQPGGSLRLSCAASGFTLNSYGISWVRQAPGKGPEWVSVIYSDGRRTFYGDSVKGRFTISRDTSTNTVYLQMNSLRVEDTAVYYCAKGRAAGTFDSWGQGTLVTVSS
VL: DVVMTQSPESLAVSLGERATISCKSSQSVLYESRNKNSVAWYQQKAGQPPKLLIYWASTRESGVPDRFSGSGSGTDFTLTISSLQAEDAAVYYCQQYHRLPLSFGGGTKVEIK

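Library AAYL50 holds single substitutions and randomly drawn double and triple substitutions in the CDRs. The assay is AlphaSeq: two haploid yeast populations carry antibody and antigen on their surface. After mating in shaken culture at 30 °C for 16 h, diploids were selected and their barcode pairs sequenced. The ratio of observed to expected reads was calibrated, replicate by replicate, on BCL2-family standards whose Kd was known from biolayer interferometry. There are three technical replicates.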

Positions count from residue 1 of the parent VL; V29M puts M in place of V.
Values are apparent Kd, the geometric mean of the replicates that gave a signal; lower means stronger binding.
Where no diploid with the target was found in any replicate, the entry reads "nd": below detection, most likely a poor binder, though not proof of it.
Nonspecific signal, from three strains lacking the peptide, appeared in 18% of pairings of library AAYL50, centred on 15 µM (5% of these signals below 970 nM); values are not corrected for it. The control count says in how many pairings with the empty strains this scFv gave a signal.

Kd (apparent) | detected | signal with controls | changes
nd | 0/3 | 3/9 | V29M+S58Y+T59G
nd | 0/3 | 5/9 | S25K+L102C
160 nM | 3/3 | 0/9 | Y31C+E32M+Q96K
130 nM | 3/3 | 2/9 | K36I+Q96E
300 µM | 1/3 | 1/9 | V39E+R60E+H98E
3.6 µM | 1/3 | 1/9 | S28W+Y31W+S58E
2.5 µM | 3/3 | 3/9 | Q27Y+E32I+S62V
1.2 µM | 1/3 | 1/9 | S25H+A40R+S58C
nd | 0/3 | 0/9 | A57D+S58K+Q96P
130 nM | 3/3 | 2/9 | K24C+Y31A
2.2 µM | 1/3 | 1/9 | S26V+L102A+S103H
nd | 0/3 | 3/9 | E32V+A40R+E61L
nd | 0/3 | 0/9 | R60F+S62Q+L102Q
26 µM | 1/3 | 1/9 | N35G+W56V+L100T
14 µM | 2/3 | 6/9 | Y31L+Y97G
8.1 nM | 3/3 | 2/9 | S28I+R34E+H98N
120 nM | 3/3 | 4/9 | N35Q+S38G
170 nM | 3/3 | 1/9 | E32M+N37S+R99I
36 µM | 2/3 | 3/9 | N37Q+A40P+H98V
6.2 nM | 3/3 | 0/9 | L30Q+Y31S+E61I
nd | 0/3 | 1/9 | Q27D+N35Q+P101Q
nd | 0/3 | 0/9 | S25D+N35H+Y97T
50 nM | 3/3 | 1/9 | K24H+S58Q+L100F
13 nM | 3/3 | 2/9 | S25E+S26V+Q27E
nd | 0/3 | 4/9 | S38C+A40M+S58L
nd | 0/3 | 0/9 | S28C+S38I
nd | 0/3 | 0/9 | S26L+V39K+R60N
2.6 nM | 3/3 | 4/9 | S25M+S33E+S103K
18 nM | 3/3 | 2/9 | V29D+S58V+S103A
nd | 0/3 | 1/9 | Q27K+V39G+S103E
12 nM | 3/3 | 0/9 | S26K+R34P+L100F
100 µM | 1/3 | 4/9 | Y31C+S58F+T59K
38 µM | 1/3 | 3/9 | K36D+A57Y+T59W
nd | 0/3 | 0/9 | Y31P+T59I+S103R
8.0 nM | 3/3 | 2/9 | S28P+S62I+L100M
2.8 nM | 3/3 | 1/9 | S25C+R34T+R99A
nd | 0/3 | 0/9 | A40P+Y97R+L102F
49 µM | 1/3 | 3/9 | K24E+A57P+R60C
52 nM | 3/3 | 0/9 | L30F+K36I+W56D
35 µM | 3/3 | 2/9 | T59K+Q95G
1.4 µM | 1/3 | 2/9 | V29E+Y31M+T59P
21 nM | 3/3 | 2/9 | L30V+R99K
6.5 nM | 3/3 | 2/9 | K36M+P101L+S103Y
6.1 nM | 3/3 | 2/9 | K36T+N37R
83 µM | 2/3 | 3/9 | K24Y+L30M+A57W
nd | 0/3 | 2/9 | K36I+V39G+Y97A
nd | 0/3 | 0/9 | L30V+R60A+Y97V
100 µM | 2/3 | 5/9 | S28E+E32D+Q95K
14 µM | 1/3 | 1/9 | A40V+W56F
17 nM | 3/3 | 2/9 | Y31T+K36M+A57T

The closing 7 entries, repeated:

changes | Kd (apparent) | detected | signal with controls
K36T+N37R | 6.1 nM | 3/3 | 2/9
K24Y+L30M+A57W | 83 µM | 2/3 | 3/9
K36I+V39G+Y97A | nd | 0/3 | 2/9
L30V+R60A+Y97V | nd | 0/3 | 0/9
S28E+E32D+Q95K | 100 µM | 2/3 | 5/9
A40V+W56F | 14 µM | 1/3 | 1/9
Y31T+K36M+A57T | 17 nM | 3/3 | 2/9